Results as given in paper PMC4550811.

Tested on: Nc1ncnc2c1ncn2[C@@H]1O[C@H](COP(=O)(O)OP(=O)(O)OP(=O)(O)O)[C@@H](O)[C@H]1O
Experiment: purified protein
Details: apparent, peptide co-substrate CylLS 100 μM (not saturating), 1 μM CylM, 20 mM MgCl2, 2 mM DTT, 50 mM HEPES pH 7.5, 25 °C

Substance: CylM (Enterococcus faecalis)
- Km: 99 ± 6 µM
- kcat: 0.0683 ± 0.0017 s⁻¹
